Data published in patent US20130189225A1 (ASSOCIATION INSTITUT DE MYOLOGIE, published 2013).

By UniProt entry, the sequences of proteins in these tests, tags left out. Residues count along the entry.
UniProt Q08380, 19-585 limits assumed: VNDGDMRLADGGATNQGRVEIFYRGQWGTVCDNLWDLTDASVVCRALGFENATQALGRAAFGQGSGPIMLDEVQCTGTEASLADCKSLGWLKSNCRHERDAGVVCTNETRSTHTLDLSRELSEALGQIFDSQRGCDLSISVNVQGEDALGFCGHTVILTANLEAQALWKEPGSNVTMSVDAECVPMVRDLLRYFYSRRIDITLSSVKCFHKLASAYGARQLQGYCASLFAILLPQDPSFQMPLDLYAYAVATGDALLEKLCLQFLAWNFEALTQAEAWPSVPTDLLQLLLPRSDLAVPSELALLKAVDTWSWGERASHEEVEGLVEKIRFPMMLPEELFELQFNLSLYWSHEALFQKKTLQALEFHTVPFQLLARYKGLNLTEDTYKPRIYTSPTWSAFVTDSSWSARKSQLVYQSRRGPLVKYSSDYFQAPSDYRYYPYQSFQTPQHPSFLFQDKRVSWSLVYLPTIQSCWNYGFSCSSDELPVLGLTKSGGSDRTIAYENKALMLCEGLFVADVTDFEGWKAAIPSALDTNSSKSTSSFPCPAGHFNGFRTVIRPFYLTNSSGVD

Target: human galectin 3 binding protein (G3BP), native protein of human serum (human) (UniProt Q08380)
Test: surface plasmon resonance imagery, rAAV immobilised on glass prism, hu-G3BP injected

## rAAV-8 (recombinant adeno-associated virus vector with AAV-8 capsid)
  Ka: 1e+09 M⁻¹
  binding capacity compared to rAAV-6 (times less than rAAV-6): 2
